From patent US20250381181A1, “CANCER TREATMENT AGENT INCLUDING MALT1 INHIBITING DRUG AS ACTIVE INGREDIENT” (ONO PHARMACEUTICAL CO., LTD., priority 2022, published 2025)

How the values were obtained:
[1] = test system: Human mantle cell lymphoma cell line; experiment: Combination of Compound A and each anticancer agent, cell viability (Cell Counting Kit-8); details: combined treatment with Compound A (3, 10, 30 or 100 nmol/L), 6 days
[2] = test system: Human CD79 mutation-positive diffuse large B-cell lymphoma cell line; experiment: as above; details: combined treatment with Compound A (3, 10, 30 or 100 nmol/L); CD79 mutation-positive DLBCL; 6 days

SMILES | Combination index (CI) value, median [1] | Combination index (CI) value, median [2]
O=P1(N(CCCl)CCCl)NCCCO1 (stereo not drawn) [Cyclophosphamide] | 0.931 | –
Cn1c(CCCC(=O)O)nc2cc(N(CCCl)CCCl)ccc21 [Bendamustine] | 0.793 | 0.796
CC[C@]1(O)C[C@H]2CN(CCc3c([nH]c4ccccc34)[C@@](C(=O)OC)(c3cc4c(cc3OC)N(C=O)[C@H]3[C@@](O)(C(=O)OC)[C@H](OC(C)=O)[C@]5(CC)C=CCN6CC[C@]43[C@@H]65)C2)C1 [Vincristine] | 0.860 | 0.961
CC(C)C[C@H](NC(=O)[C@H](Cc1ccccc1)NC(=O)c1cnccn1)B(O)O [Bortezomib] | 0.989 | –
